Test results as given in article PMC11002996 (Journal of medicinal chemistry, 2023).

Test system: priming by LPS (TNF-α)
Assay: LPS priming step, TNF-α in J774A.1 culture media by ELISA
Type: cell-based, mouse
Conditions: various concentrations

With COC(=O)c1ccc(-c2cn(Cc3cc(Cl)ccc3OC)nn2)cc1 [Compound 8, Methyl 4-(1-(5-chloro-2-methoxybenzyl)-1H-1,2,3-triazol-4-yl)benzoate] the “inhibitory effect on the LPS priming step” value was “no inhibitory effect”.
